Assay results from PubChem BioAssay AID1346983 (Tox21, 2019).
Only a part is listed here, and it is no random draw. Inconclusive results are not listed. Activity calls are given as the source filed them. The call rests on the fitted dose curve; in most records, active means well fitted activation curve with a large enough effect in the repeat runs; inconclusive means weak or mixed curves; inactive means no such curve, though single readings can be large or run the other way.
Further: nearly all actives have a fitted effect of over 20% in size.
On the % scale 0 is the no-effect control and ±100 the full control effect.

Amino acid sequences for entries named in this document (tags omitted).
UniProt Q9R1A7, whole entry: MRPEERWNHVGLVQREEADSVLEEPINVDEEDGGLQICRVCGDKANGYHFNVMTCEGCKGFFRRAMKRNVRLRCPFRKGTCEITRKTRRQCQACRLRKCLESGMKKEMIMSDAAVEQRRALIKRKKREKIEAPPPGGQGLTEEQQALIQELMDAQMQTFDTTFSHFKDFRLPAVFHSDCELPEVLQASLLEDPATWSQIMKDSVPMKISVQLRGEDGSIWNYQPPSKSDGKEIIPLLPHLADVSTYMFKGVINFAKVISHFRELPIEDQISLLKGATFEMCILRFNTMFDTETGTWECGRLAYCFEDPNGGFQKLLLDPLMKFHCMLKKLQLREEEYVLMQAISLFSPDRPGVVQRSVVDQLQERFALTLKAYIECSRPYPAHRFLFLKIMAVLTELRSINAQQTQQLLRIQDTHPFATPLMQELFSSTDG

These compounds were tested against Nuclear receptor subfamily 1 group I member 2 (Rattus norvegicus) (UniProt Q9R1A7) (assay: Rat pregnane X receptor (rPXR) activation by small molecules, qHTS assay). Settings: rPXR luciferase reporter cells, One-Glo luminescence, 24 h; stronger effect = higher value.
Excerpt: National Center for Advancing Translational Sciences [NCATS] NIH Chemical Genomics Center [NCGC] U.S. Environmental Protection Agency [EPA] National Institutes of Environmental Health Sciences [NIEHS] National Toxicology Program [NTP] Assay overview: The Pregnane X receptor (PXR), a ligand activated nuclear receptor plays a critical role in the regulation of genes involved in drug metabolism and transporters. PXR binds xenobiotics and when compounds interact with PXR produces enhanced expression of CYP3A genes. In humans PXR activation and CYP3A4 induction can be problematic due to their interactions with co-medicated drugs and decrease their efficacy or increase their own metabolism. However, there are known species-specific differences with regard to PXR activation that should be taken into account when animal PXR data are extrapolated to humans. A cell based rat PXR (rPXR) assay (developed by Puracyp, Inc., CA) was used to assess the activation of rPXR.
Assay Protocol Summary: rPXR cells were dispensed at 2,000 per well in 5uL of assay medium into white, solid-bottom 1536-well plates using a Multidrop Combi dispenser (Thermo Scientific). The assay plates were incubated at 37 C for 5hr before transferring 23 nL of test compounds dissolved in DMSO and positive control via Pintool station (Wako). The assay plates were incubated at 37 C for 24 hr. Then 5ul One-Glo assay reagent (Promega) was added to each plate by a Flying Reagent Dispenser (FRD, Aurora Discovery) and following 30 min incubation at room temperature, luciferase activity was quantified on a ViewLux plate reader (Perkin Elmer).
With C/C1=C2N=C(/C=C3N=C(/C(C)=C4\[N-][C@@](C)([C@@H]5N=C1[C@](C)(CCC(=O)NC[C@@H](C)OP(=O)([O-])O[C@H]1[C@@H](O)[C@@H](n6cnc7cc(C)c(C)cc76)O[C@@H]1CO)[C@H]5CC(N)=O)[C@@](C)(CC(N)=O)[C@@H]4CCC(N)=O)[C@@](C)(CC(N)=O)[C@@H]\3CCC(N)=O)C(C)(C)[C@@H]/2CCC(N)=O.[C-]#N.[Co+3] the max activation was inactive: -1.1%.
For CC(C)OP(=O)(F)OC(C)C, the max activation was inactive: -0.54%.
For OCCSCCO, the max activation was inactive: -1.61%.
In the case of O=[N+]([O-])[O-].[NH4+], the max activation is reported as inactive: -2.83%.
For CN(C)CCS, the max activation was inactive: -2.98%.
With O=[N+]([O-])c1cccc([N+](=O)[O-])c1 the max activation was inactive: -5.04%.
In the case of O=[N+]([O-])OCC(CO[N+](=O)[O-])(CO[N+](=O)[O-])CO[N+](=O)[O-], the max activation is reported as inactive: -0.548%.
